Data published in ChEMBL document CHEMBL4219127, “Structural design, synthesis and substituent effect of hydrazone-N-acylhydrazones reveal potent immunomodulatory agents” (Bioorg Med Chem, 2018).
The source made the active and inactive calls. The calls are words filed in the database; no cut-off is given here.

Legend:
Peritoneal macrophage [1] = experiment: Antiinflammatory activity in BALB/c mouse peritoneal macrophages assessed as inhibition of LPS/IFNgamma-induced IL-6 level after 4 hrs by ELISA
Splenocyte [2] = experiment: Antiinflammatory activity in BALB/c mouse splenocytes assessed as inhibition of concanavalin A-induced IL-4 level after 48 hrs by ELISA
Splenocyte [3] = experiment: Cell cycle arrest in concanavalin A-stimulated BALB/c mouse splenocytes assessed as accumulation at G0/G1 phase at 2.5 to 10 uM after 48 hrs by propidium iodide staining-based flow cytometry
Splenocyte [4] = experiment: Antiinflammatory activity in BALB/c mouse splenocytes assessed as inhibition of concanavalin A-induced IL-2 level after 48 hrs by ELISA
Splenocyte [5] = experiment: Antiinflammatory activity in BALB/c mouse splenocytes assessed as inhibition of concanavalin A-induced IL-17A level after 48 hrs by ELISA
Peritoneal macrophage [6] = experiment: Antiinflammatory activity in BALB/c mouse peritoneal macrophages assessed as inhibition of LPS/IFNgamma-induced TNF-alpha secretion at 10 uM after 4 hrs by ELISA
Splenocyte [7] = experiment: Immunomodulatory activity in BALB/c mouse splenocytes assessed as inhibition of mouse anti-CD3/anti-CD28-induced lymphocyte proliferation by measuring [3H]-thymidine uptake after 48 hrs by scintillation counting analysis
Splenocyte [8] = experiment: Antiinflammatory activity in BALB/c mouse splenocytes assessed as inhibition of concanavalin A-induced IL-10 level after 48 hrs by ELISA
Mus musculus [9] = experiment: Antiinflammatory activity in carrageenan-induced BALB/c mouse peritonitis model assessed as reduction in number of neutrophils in peritoneal fluid at 20 mg/kg, po pretreated for 1 hr followed by carrageenan challenge measured after 4 hrs by hematoxylin and eosin staining-based assay relative to …
Peritoneal macrophage [10] = experiment: Antiinflammatory activity in BALB/c mouse peritoneal macrophages assessed as inhibition of LPS/IFNgamma-induced IL-1beta level after 24 hrs by ELISA
Mus musculus [11] = experiment: Antiinflammatory activity in carrageenan-induced BALB/c mouse peritonitis model assessed as reduction in number of neutrophils in peritoneal fluid at 80 mg/kg, po pretreated for 1 hr followed by carrageenan challenge measured after 4 hrs by hematoxylin and eosin staining-based assay relative to …
Splenocyte [12] = experiment: Immunomodulatory activity in BALB/c mouse splenocytes assessed as reduction in cellular calcineurin phosphatase activity at 1 to 12 uM after 72 hrs by colorimetric assay
J774 [13] = experiment: Antiinflammatory activity in BALB/c mouse J774 cells assessed as inhibition of LPS-induced PGE2 biosynthesis after 24 hrs by enzyme immunoassay
Splenocyte [14] = experiment: Antiinflammatory activity in BALB/c mouse splenocytes assessed as inhibition of concanavalin A-induced IFN-gamma level after 48 hrs by ELISA
J774 [15] = experiment: Antiinflammatory activity in BALB/c mouse J774 cells assessed as inhibition of LPS-induced COX2 mRNA level after 24 hrs by qRT-PCR method
Peritoneal macrophage [16] = experiment: Antiinflammatory activity in BALB/c mouse peritoneal macrophages assessed as inhibition of LPS/IFNgamma-induced nitric oxide production after 24 hrs by Griess method

SMILES: CC(/C=N/Nc1ccc([N+](=O)[O-])cc1)=N\NC(=O)c1cc([N+](=O)[O-])cc([N+](=O)[O-])c1
- inhibition (Peritoneal macrophage [1]): Dose-dependent effect
- inhibition (Splenocyte [2]): Dose-dependent effect
- Activity (Splenocyte [3]): Active
- inhibition (Splenocyte [4]): Dose-dependent effect
- inhibition (Splenocyte [5]): Dose-dependent effect
- inhibition (Peritoneal macrophage [6]): Active
- inhibition (Splenocyte [7]): Dose-dependent effect
- inhibition (Splenocyte [8]): Dose-dependent effect
- inhibition (Mus musculus [9]): 21.4%
- inhibition (Peritoneal macrophage [10]): Dose-dependent effect
- inhibition (Mus musculus [11]): 30.6%
- Activity (Splenocyte [12]): Active
- inhibition (J774 [13]): Dose-dependent effect
- inhibition (Splenocyte [14]): Dose-dependent effect
- inhibition (J774 [15]): Dose-dependent effect
- inhibition (Peritoneal macrophage [16]): Dose-dependent effect
